The source of these data is patent publication US20230322735A1, “AZETIDINYL TRYPTAMINES AND METHODS OF TREATING PSYCHIATRIC DISORDERS” (priority 2020, published 2023).

Protein sequences, listed by entry. Tags and fused reporters are not part of them.
UniProt P41595, whole entry: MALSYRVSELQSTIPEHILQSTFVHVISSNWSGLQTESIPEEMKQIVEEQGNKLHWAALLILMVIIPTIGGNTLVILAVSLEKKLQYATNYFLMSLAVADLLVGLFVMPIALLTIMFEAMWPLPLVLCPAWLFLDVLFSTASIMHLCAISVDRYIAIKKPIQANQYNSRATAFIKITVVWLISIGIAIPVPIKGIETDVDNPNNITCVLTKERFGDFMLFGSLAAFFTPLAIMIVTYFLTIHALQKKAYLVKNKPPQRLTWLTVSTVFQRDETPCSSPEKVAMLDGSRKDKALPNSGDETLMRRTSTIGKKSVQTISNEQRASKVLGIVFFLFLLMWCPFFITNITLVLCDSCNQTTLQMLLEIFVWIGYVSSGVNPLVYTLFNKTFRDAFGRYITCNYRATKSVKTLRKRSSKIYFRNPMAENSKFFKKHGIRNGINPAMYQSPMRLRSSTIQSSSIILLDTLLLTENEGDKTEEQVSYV

In this assay the target is T1, 5-HT2B receptor (Homo sapiens, UniProt P41595).
T1 construct: host or cells: HEK293
As to the kind of experiment: FLIPR Ca2+ flux agonist assay at 5-HT2B (HEK293). The class given is cell-based.

In turn, `CN(C)CCc1c[nH]c2cccc(O)c12` [Psilocin, psilocin, reference compound] had an EC50 above 31.6 µM.
